Values quoted from earlier work, collected in patent US20250114351A1, “5-HT2C RECEPTOR MODULATING AGENTS FOR THE TREATMENT OF NEURODEGENERATIVE, MENTAL, COGNITIVE AND AUTOIMMUNE CNS DISORDERS” (priority 2022, published 2025).

Protein sequences, listed by entry. Tags and fused reporters are not part of them. Residues count along the entry.
UniProt P28335, 33-458, species assumed: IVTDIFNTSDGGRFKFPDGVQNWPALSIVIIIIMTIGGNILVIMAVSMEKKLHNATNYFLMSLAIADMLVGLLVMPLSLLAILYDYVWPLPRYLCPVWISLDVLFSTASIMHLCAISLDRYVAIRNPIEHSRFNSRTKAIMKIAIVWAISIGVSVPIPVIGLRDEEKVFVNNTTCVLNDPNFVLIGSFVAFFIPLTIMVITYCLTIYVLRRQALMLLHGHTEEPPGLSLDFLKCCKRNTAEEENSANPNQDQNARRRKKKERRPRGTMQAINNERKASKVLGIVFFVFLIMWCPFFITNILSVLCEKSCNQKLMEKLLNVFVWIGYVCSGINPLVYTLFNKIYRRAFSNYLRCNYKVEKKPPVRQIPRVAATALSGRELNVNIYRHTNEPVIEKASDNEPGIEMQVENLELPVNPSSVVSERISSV
UniProt P28223, whole entry, species assumed: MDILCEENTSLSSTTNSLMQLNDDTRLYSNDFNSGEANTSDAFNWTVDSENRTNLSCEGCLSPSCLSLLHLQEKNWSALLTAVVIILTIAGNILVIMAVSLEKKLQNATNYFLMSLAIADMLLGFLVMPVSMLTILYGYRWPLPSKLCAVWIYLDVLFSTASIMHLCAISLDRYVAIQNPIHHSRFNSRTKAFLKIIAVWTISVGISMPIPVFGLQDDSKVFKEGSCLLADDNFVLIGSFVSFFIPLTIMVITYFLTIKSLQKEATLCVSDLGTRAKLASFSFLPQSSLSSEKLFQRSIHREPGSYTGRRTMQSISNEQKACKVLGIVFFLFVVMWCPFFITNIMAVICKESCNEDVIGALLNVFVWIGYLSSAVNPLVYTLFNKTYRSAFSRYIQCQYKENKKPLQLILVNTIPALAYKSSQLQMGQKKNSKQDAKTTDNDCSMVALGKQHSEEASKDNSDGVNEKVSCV
UniProt P41595, whole entry, species assumed: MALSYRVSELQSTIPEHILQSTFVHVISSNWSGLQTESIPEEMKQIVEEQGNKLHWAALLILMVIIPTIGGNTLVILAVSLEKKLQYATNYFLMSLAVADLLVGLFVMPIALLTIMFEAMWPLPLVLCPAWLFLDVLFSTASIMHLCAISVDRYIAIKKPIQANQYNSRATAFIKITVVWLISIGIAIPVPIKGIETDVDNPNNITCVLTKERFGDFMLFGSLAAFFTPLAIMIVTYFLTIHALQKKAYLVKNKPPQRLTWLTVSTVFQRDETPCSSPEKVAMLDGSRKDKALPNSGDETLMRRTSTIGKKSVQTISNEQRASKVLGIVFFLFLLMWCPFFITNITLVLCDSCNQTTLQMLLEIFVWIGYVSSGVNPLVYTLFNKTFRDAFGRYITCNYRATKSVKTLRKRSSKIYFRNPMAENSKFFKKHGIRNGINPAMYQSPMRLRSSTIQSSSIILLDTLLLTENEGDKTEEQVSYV

Key:
Details in all cases: cited from earlier work
5-HT2C = 5-HT2C (Homo sapiens, UniProt P28335)
5-HT2A = 5-HT2A (Homo sapiens, UniProt P28223)
5-HT2B = 5-HT2B (Homo sapiens, UniProt P41595)

Clc1cccc(N2CCNCC2)c1 [mCPP, m-Chlorophenylpiperazine]
5-HT2C Emax (5-HT2C): 63 ± 3% | EC50 (5-HT2C; read-out: S-HT2C EC50): 120 ± 10 nM | 5-HT2A Emax (5-HT2A): 18 ± 2% | EC50 (5-HT2A): 150 ± 20 nM | 5-HT2B Emax (5-HT2B): 21 ± 9% | EC50 (5-HT2B): 93 ± 50 nM
